Source: patent US6586405B2, “Non-covalent inhibitors of urokinase and blood vessel formation” (Corvas International, Inc., priority 2000, dated 2003)

Chains of the proteins cited; added tags and fusions are not shown. Residues count along the entry.
UniProt P00750, 36-562 limits assumed: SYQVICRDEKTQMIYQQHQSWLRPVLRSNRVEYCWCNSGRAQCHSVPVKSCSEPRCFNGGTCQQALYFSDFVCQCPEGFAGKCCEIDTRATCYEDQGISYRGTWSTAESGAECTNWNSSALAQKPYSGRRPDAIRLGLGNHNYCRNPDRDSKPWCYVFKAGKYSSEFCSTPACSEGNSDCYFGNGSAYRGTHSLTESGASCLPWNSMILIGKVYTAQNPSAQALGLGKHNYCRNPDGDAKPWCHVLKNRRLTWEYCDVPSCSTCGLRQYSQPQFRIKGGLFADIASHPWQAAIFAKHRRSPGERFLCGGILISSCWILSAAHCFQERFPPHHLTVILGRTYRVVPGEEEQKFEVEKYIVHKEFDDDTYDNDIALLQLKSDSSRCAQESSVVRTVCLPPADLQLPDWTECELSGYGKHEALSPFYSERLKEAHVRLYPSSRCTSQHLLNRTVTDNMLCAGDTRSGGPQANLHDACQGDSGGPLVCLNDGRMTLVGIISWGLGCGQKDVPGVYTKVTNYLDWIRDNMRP

Columns and labels:
Urokinase (Abbokinase) = Urokinase (Abbokinase) (Homo sapiens, UniProt P00749); test: Urokinase assay, chromogenic substrate S-2444; type: biochemical; conditions: read-out: Ki uPA; Ki calculated using the IC50 value; 30 minute incubation, HBSA buffer
Human rt-PA (Activase) = Human rt-PA (Activase) (Homo sapiens, UniProt P00750); test: Recombinant tissue plasminogen activator (rt-PA) assay, chromogenic substrate Pefachrome t-PA; conditions: read-out: IC50 tPA; 30 minute incubation, HBSA buffer, rt-PA 1.0 nM

| Structure (SMILES) | Ki (Urokinase (Abbokinase)) [nM] | IC50 (Human rt-PA (Activase)) [nM] |
| --- | --- | --- |
| CCCCS(=O)(=O)N[C@H](CO)C(=O)N1CCC1C(=O)NCc1ccc(C(=N)N)cc1 (single isomer, unassigned) | < 100 | – |
| N=C(N)c1ccc(CNC(=O)[C@@H]2CCCN2C(=O)[C@@H](CO)NS(=O)(=O)CCc2ccccc2)cc1 | < 100 | > 2500 |
